Results taken from PMC7512223 (Molecular Diversity, 2020).

By UniProt entry, the sequences of proteins in these tests, tags left out.
UniProt P27338, whole entry: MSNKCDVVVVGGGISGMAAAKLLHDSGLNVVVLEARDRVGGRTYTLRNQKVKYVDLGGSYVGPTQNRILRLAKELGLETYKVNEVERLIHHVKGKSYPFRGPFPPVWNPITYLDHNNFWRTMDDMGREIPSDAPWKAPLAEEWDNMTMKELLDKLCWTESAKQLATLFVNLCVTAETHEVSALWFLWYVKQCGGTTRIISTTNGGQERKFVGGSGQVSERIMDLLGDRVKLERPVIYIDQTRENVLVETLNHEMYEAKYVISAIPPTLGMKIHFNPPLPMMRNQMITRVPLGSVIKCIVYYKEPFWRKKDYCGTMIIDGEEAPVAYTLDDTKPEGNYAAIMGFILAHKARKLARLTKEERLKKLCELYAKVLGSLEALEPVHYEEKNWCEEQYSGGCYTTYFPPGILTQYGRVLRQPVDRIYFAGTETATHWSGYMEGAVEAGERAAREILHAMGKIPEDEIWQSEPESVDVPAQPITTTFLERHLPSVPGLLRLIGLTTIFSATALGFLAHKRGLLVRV

Biological target: MAO-B (Homo sapiens, UniProt P27338)
Test: Inhibition of recombinant human MAO-B, kynuramine fluorometric assay
Type: biochemical

Row | Structure (SMILES) | IC50 [nM]
1 | O=C1CCCc2cc(OCc3ccc(Cl)cc3)ccc21 [1g, 6-(4-Chlorobenzyloxy)-1-tetralone] | 5.5 ± 0.6
2 | O=C1CCOc2cc(OCc3ccc(Cl)cc3)ccc21 [2f, 7-(4-Chlorobenzyloxy)-4-chromanone] | 4 ± 0.8
